Data from the NIST ThermoML archive (doi:10.1016/j.tca.2014.05.033).
± gives the expanded uncertainty stated by the source.

Assay: molar enthalpy of vaporization or sublimation
Details: 298.15 K; Crystal; DSC

molar enthalpy: 17.5 ± 0.55 kcal/mol
Compound: c1ccc2cccc-2cc1 [bicyclo[5.3.0]deca-2,4,6,8,10-pentaene]
